The test addresses type I collagen (Advanced BioMatrix) coated on plates and pretreated with collagenase. The test can be described thus: cell-based or functional assay.

This is an account of results in patent US20230048200A1.

As to “Compound 3, a (Pro-Pro-Gly)7 CMP (peptide)”, the collagen parallel alignment (digital analysis of DIC micrographs) turned out to be 3 fold.
